Test results taken from publication PMC5862892, “Near-native, site-specific and purification-free protein labeling for quantitative protein interaction analysis by MicroScale Thermophoresis” (Scientific Reports, 2018).

Molecular target: T1, pUL50 (human cytomegalovirus, UniProt P16791 1-358)
T1 sequence: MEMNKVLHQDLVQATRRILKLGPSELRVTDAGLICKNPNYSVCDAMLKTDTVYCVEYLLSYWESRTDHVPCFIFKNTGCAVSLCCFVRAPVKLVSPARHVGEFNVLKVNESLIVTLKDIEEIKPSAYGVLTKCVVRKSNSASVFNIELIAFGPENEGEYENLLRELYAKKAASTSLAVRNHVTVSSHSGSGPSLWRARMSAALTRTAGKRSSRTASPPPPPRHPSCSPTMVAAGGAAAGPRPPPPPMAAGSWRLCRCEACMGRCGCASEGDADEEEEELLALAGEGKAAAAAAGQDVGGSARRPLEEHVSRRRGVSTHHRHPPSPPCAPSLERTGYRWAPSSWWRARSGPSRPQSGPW
Assay: MST

B1: His6-tagged protein variant of pUL53 (residues 50 to 292 of human cytomegalovirus ORF-UL53 1-376) (domain or fragment)
chain: PSPADARPRLTLHDLHDIFREHPELELKYLNMMKMAITGKESICLPFNFHSHRQHTCLDISPYGNEQVSRIACTSCEDNRILPTASDAMVAFINQTSNIMKNRNFYYGFCKSSELLKLSTNQPPIFQIYYLLHAANHDIVPFMHAEDGRLHMHVIFENPDVHIPCDCITQMLTAAREDYSVTLNIVRDHVVISVLCHAVSASSVKIDVTILQRKIDEMDIPNDVSESFERYKELIQELCQSSG
modifications: RED-tris-NTA (NT647-tris-NTA) bound to the His6 tag
notes: source: E. coli BL21(DE3)
In the case of B1, the Kd (both partners purified) is reported as 1200 ± 500 nM and the Kd (one partner purified) is reported as 1800 ± 200 nM.
